## Apparent affinities of Ab-95 variants for a coronavirus HR2 peptide

Data: MIT Lincoln Laboratory AlphaSeq set, Engelhart et al. 2022, doi:10.1038/s41597-022-01779-4, as distributed in FLAb.

Antigen: PDVDLGDISGINAS, a 14-residue peptide of the SARS-CoV-2 spike HR2 region.

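Phage display of a naive human antibody library on the peptide gave the parent. In library AAYL52, one, two or three CDR residues were substituted; doubles and triples were drawn at random. The assay is AlphaSeq: two haploid yeast populations carry antibody and antigen on their surface. The frequency of each diploid, read from paired DNA barcodes, reflects how well the two displayed proteins bind. Read counts were normalised to the haploid input and turned into Kd by a linear fit to BCL2-family pairs of known affinity, for each replicate. There are three technical replicates.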

Each scFv is VH, a 15-residue (Gly4Ser)3 linker, VL, as in the parent Ab-95, and differs from it in the CDRs of the light chain only.
VH: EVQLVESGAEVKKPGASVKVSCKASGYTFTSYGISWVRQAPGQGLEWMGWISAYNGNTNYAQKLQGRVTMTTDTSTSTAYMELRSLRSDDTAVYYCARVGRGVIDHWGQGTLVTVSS
VL: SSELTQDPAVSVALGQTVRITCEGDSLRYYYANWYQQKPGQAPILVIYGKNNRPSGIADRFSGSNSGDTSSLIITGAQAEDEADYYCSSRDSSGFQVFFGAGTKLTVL

Each variant's VL is given in full. Numbers give log10(Kd / nM), so 0 is 1 nM and 3 is 1 µM. Smaller is tighter. Replicates are averaged; those with no signal do not enter the mean. A pair that was not seen in that replicate is written "ND"; this usually means weak binding, but a binder can also be missed. In this assay the parent's reference entry averaged 2.31; its copy inside this library read 2.25. As a blank, each scFv also met three strains without target: over library AAYL52, 28% of these pairings were detected, typically at 3.91 and seldom below 2.90. Also given: how often the same scFv was detected with the empty control strains, with their mean in brackets.

VL	log10 Kd (nM) by replicate	log10 Kd (nM), mean	signal with controls
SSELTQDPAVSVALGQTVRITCEGDSRRYYYANWYQQKPGQAPILVIYGWANRPSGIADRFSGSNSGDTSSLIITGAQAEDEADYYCSSRDSSGFQVFFGAGTKLTVL	ND 3.91 4.54	4.22	4/9 (4.79)
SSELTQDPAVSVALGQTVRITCEGDSLRYMYANWYQQKPGQAPILVIYGKNNYPSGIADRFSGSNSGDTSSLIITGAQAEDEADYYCSSRDSSGFQNFFGAGTKLTVL	4.55 4.62 4.06	4.41	3/9 (4.27)
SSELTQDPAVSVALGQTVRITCEGDSLRYYYKNWYQQKPGQAPILVIYGKNNRPSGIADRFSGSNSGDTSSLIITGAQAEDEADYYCSSRASSGFQVSFGAGTKLTVL	3.26 4.81 3.32	3.80	6/9 (4.09)
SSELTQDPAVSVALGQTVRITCEGDSLRYYYANWYQQKPGQAPILVIYYKNNRPSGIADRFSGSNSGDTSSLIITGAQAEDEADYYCSSRDSVGFQFFFGAGTKLTVL	ND ND ND	ND	1/9 (2.94)
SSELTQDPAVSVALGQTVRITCEGDSLRYIYANWYQQKPGQAPILVIYGKNNRPSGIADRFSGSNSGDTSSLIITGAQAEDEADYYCSSFDSSCFQVFFGAGTKLTVL	ND 4.17 ND	4.17	1/9 (3.84)
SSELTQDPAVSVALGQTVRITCEGDSLRYYAANWYQQKPGQAPILVIYGKNNNPSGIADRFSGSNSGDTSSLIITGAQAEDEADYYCSSRDSNGFQVFFGAGTKLTVL	3.87 3.96 3.11	3.65	1/9 (4.39)
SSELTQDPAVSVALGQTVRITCEGDSLRYYYANWYQQKPGQAPILVIYGKNNRPSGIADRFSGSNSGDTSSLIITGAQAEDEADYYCAHRDSSGFQVSFGAGTKLTVL	1.97 2.15 1.66	1.93	4/9 (2.96)
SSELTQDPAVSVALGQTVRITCEGDSIRYYYANWYQQKPGQAPILVIYGKNNRPSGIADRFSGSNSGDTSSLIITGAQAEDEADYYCSSRDRSGFQVEFGAGTKLTVL	3.06 2.69 3.51	3.09	2/9 (4.10)
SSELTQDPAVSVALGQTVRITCEGFSLRYYYANWYQQKPGQAPILVIYGKMNRPSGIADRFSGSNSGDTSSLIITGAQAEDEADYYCSSMDSSGFQVFFGAGTKLTVL	ND ND 4.83	4.83	5/9 (4.32)
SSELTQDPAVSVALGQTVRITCCGDSLREYYANWYQQKPGQAPILVIYGKNGRPSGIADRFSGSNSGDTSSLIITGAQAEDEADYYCSSRDSSGFQVFFGAGTKLTVL	2.94 3.15 3.99	3.36	4/9 (3.86)
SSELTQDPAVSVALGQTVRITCEGDSLRYYYAVWYQQKPGQAPILVIYGKNNRPSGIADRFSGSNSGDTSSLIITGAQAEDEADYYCSSRDSSGFNVFFGAGTKLTVL	4.23 4.88 ND	4.55	4/9 (4.25)
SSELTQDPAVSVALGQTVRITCEGTSLWYYYANWYQQKPGQAPILVIYGKNNRPSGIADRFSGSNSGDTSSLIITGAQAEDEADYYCSFRDSSGFQVFFGAGTKLTVL	3.02 2.90 2.91	2.94	2/9 (4.33)
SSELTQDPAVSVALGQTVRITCELDSLRYYYANWYQQKPGQAPILVIYGKGNRPSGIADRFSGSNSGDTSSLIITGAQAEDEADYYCSGRDSSGFQVFFGAGTKLTVL	2.48 2.24 2.03	2.25	4/9 (3.72)
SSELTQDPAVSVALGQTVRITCEGDSLRYYYANWYQQKPGQAPILVIYGKNNRPSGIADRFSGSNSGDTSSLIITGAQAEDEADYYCSSLDSTGFQVFFGAGTKLTVL	3.33 ND ND	3.33	2/9 (3.96)
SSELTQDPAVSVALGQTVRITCEGDSLKYYYCNWYQQKPGQAPILVIYGKNNRNSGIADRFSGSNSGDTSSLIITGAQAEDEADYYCSSRDSSGFQVFFGAGTKLTVL	3.04 3.79 2.62	3.15	3/9 (3.69)

Excerpt, the final 2 entries:

{"VL": "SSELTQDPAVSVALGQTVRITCEGDSLRYYYANWYQQKPGQAPILVIYGKNNRPSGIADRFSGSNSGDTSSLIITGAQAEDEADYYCSSLDSTGFQVFFGAGTKLTVL", "log10 Kd (nM) by replicate": "3.33 ND ND", "log10 Kd (nM), mean": "3.33", "signal with controls": "2/9 (3.96)"}
{"VL": "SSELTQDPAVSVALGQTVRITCEGDSLKYYYCNWYQQKPGQAPILVIYGKNNRNSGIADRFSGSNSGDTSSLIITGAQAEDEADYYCSSRDSSGFQVFFGAGTKLTVL", "log10 Kd (nM) by replicate": "3.04 3.79 2.62", "log10 Kd (nM), mean": "3.15", "signal with controls": "3/9 (3.69)"}